Data published in article PMC10938434, “Design, Synthesis, and Biological Effect Studies of Novel Benzofuran–Thiazolylhydrazone Derivatives as Monoamine Oxidase Inhibitors” (ACS Omega, 2024).

Protein sequences, listed by entry. Tags and fused reporters are not part of them.
UniProt P21397, whole entry: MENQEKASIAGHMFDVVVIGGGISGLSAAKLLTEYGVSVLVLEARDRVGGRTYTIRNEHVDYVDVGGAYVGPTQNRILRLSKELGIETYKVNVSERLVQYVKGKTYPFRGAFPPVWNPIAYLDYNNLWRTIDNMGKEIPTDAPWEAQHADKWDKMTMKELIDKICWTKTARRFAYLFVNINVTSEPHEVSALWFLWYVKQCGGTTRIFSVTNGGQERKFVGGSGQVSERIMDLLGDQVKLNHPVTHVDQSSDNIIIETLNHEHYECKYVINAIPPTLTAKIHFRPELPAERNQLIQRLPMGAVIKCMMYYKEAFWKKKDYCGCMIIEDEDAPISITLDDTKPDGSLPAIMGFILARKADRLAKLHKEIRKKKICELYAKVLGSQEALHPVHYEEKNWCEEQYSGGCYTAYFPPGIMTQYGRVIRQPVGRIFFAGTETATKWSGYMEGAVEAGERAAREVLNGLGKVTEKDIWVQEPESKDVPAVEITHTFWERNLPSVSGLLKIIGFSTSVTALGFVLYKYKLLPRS

Target: MAO-A enzyme (Homo sapiens, UniProt P21397)
Test: MAO-A enzyme inhibition, fluorometric method
Format: biochemical

C#CCN(C)CCCOc1ccc(Cl)cc1Cl [Clorgyline, clorgyline, reference compound]
MAO-A % inhibition 10^–3 M (10^–3 M): 96.94 ± 1.25%
MAO-A % inhibition 10^–4 M (10^–4 M): 91.31 ± 1.31%
